The results in this text go back to patent publication US20240208895A1, “BRANCHED-CHAIN AMINO ACID DERIVATIVES TO TREAT DISEASE” (INTRABIO LTD., priority 2021, published 2024).

How the values of series [1] were obtained: (§1) A Compound of the Disclosure is incubated at 1 μM, 10 μM and 100 μM with pooled liver S9 fractions from human (mixed gender) and mouse (CD1) at 1.5 mg/mL in 300 μL buffer containing phosphate 100 mM, MgCl2 2 mM, pH 7.4 at 37° C. for 0, 10, 20, 40, 60 min.
(§2) Enzyme kinetic data for uptake and metabolism of a Compound of the Disclosure is analysed by fitting the Michaelis-Menten equation to the data. V0=Vmax[S]/Km+[S], where V0 is initial velocity, [S] is substrate concentration, Vmax is maximum velocity and Km is substrate concentration at half Vmax. All fitting is performed using GraphPad Prism 8.4 software (GraphPad Software Inc). No weighting scheme is applied.

How the values of series [2] were obtained:
as §1, §2
This is another data set of the same source.

Where two headings read alike, the source gives them in different places.

For the substance deuterated N-acetyl-DL-leucine, in series [1], the Km – broadly, the concentration of substrate that gives half-maximal velocity – came out at 216 µM and the “Vmax, metabolism” value was 6.8 µmol/min/mg. Further, in series [2], the Km was determined as 69 µM and the “Vmax, metabolism” value came to 2.6 µmol/min/mg.
